Molecular target: Recombinant heterodimeric HCV NS3/NS4A protease (strain 1a) (Hepatitis C virus genotype 1a, UniProt P27958)
Experiment: biochemical
Parameters: species or system HCV (strain 1a)

Amino acid sequences for entries named in this document (tags omitted). Residues count along the entry.
UniProt P27958, 1027-1657 limits assumed: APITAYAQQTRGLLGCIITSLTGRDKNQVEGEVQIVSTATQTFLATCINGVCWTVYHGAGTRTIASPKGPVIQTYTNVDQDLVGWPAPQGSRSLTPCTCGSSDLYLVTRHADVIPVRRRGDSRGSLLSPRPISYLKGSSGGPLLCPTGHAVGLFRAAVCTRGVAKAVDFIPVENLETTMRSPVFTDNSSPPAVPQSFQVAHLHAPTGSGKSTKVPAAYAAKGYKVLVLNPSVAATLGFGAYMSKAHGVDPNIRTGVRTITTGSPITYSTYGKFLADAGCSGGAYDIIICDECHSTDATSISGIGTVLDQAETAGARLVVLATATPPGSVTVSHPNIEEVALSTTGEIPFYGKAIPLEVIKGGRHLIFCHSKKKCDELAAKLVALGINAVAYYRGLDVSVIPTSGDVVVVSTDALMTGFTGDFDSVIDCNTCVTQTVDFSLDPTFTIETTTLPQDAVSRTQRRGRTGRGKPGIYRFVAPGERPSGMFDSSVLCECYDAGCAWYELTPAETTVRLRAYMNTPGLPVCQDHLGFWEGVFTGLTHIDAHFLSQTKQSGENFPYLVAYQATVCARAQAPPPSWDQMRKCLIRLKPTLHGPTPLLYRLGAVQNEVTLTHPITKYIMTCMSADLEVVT
UniProt P27958, 1658-1711 partner limits assumed: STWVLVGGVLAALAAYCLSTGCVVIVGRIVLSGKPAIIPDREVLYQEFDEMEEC

| SMILES | Ki |
| --- | --- |
| CCCC(NC(=O)C1Cc2cccc(c2)Oc2ccc(cc2)CC(NC(=O)OC(C)(C)C)C(=O)NC(C2CCCCC2)C(=O)N1)C(=O)C(=O)NCC(=O)OCc1ccccc1 (stereo not shown) [Example 27] | 1.1 to 100 µM |
| CCCC(NC(=O)C1Cc2cccc(c2)Oc2ccc(cc2)CC(NC(=O)OC(C)(C)C)C(=O)NC(C2CCCCC2)C(=O)N1)C(=O)C(=O)NCC(=O)NC(C(=O)O)c1ccccc1 (stereo not shown) [Example 26] | 1.1 to 100 µM |
| CCCC(NC(=O)C1Cc2cccc(c2)Oc2ccc(cc2)CCC(=O)NCC(=O)N1)C(=O)C(=O)NCC(=O)NC(C(=O)OC(C)(C)C)c1ccccc1 (stereo not shown) [Example 9] | 1.1 to 100 µM |
| CCCC(NC(=O)C1Cc2cccc(c2)Oc2ccc(cc2)CCC(=O)NC(C2CCCCC2)C(=O)N1)C(=O)C(=O)NCC(=O)NC(C(=O)OC(C)(C)C)c1ccccc1 (stereo not shown) [Example 1] | 1.1 to 100 µM |

Reference: patent US6914122B2 (priority 2000, dated 2005)
